{"source": "patent US20240197719A1", "about": "(priority 2018, published 2024)", "details": "human, in vivo"}
{"smiles": "C=C1CC[C@@]2(O)[C@H]3Cc4ccc(O)c5c4[C@@]2(CCN3CC2CC2)[C@H]1O5", "note": "[Nalmefene, 17-cyclopropylmethyl-4,5α-epoxy-6-methylenemorphinan-3,14-diol]", "values": [{"measurement": "AUC", "value": "did not alter"}, {"measurement": "half-life", "value": "nor does it change"}, {"measurement": "dose-normalized Cmax", "setting": "im", "value": "increased dramatically"}]}
